# Results as given in article PMC9936496, “Azobenzene-Based Amino Acids for the Photocontrol of Coiled-Coil Peptides” (Bioconjugate Chemistry, 2023).
# Starred links: 1 amine or outer side, 2 acyl side, 3 side chain; linkers in the order of their positions; H or OH if unused. Non-standard residues stand in square brackets, D forms with d. Residues, ends and D or L forms follow the SMILES beside them. X1 = O=C([C@@H](N[*:1])c1ccc(N=Nc2ccccc2)cc1)[*:2]
# Experiments:
# [1] = Thermal relaxation of K3-APgly from the 340 nm PSS, UV absorbance at 325 nm; format: physicochemical; details: PBS, 20 °C, [peptide] = 50 μM
# Procedure: For the potential application of K3-APgly in an active system, for example, for membrane fusion, the stability of the photoswitch to repeated light exposures (photocycling) is required. […] Finally, the peptide was irradiated with the 340 nm PSS and allowed to thermally relax, showing 65% recovery in 69 h.
# Figure 4 Photocycling of K3-APgly between the dark-adapted, 340 and 435 nm PSS (left), thermal relaxation of the peptide after […] (middle) and distribution of the absorbance in the different states during cycling (right).
# [2] = from 340 nm PSS; PBS, 20 °C, [peptide] = 50 μM
structure (smiles),measurement,setting,value
CC[C@H](C)[C@H](NC(=O)[C@H](CCCCN)NC(C)=O)C(=O)N[C@@H](C)C(=O)N[C@@H](C)C(=O)N[C@@H](CC(C)C)C(=O)N[C@@H](CCCCN)C(=O)N[C@@H](CCC(=O)O)C(=O)N[C@@H](CCCCN)C(=O)N[C@H](C(=O)N[C@@H](C)C(=O)N[C@@H](C)C(=O)N[C@@H](CC(C)C)C(=O)N[C@@H](CCCCN)C(=O)N[C@@H](CCC(=O)O)C(=O)N[C@@H](CCCCN)C(=O)N[C@H](C(=O)N[C@@H](C)C(=O)N[C@@H](C)C(=O)N[C@@H](CC(C)C)C(=O)N[C@@H](CCCCN)C(=O)N[C@@H](CCC(=O)O)C(N)=O)[C@@H](C)CC)c1ccc(N=Nc2ccccc2)cc1 [K3-APgly] (Ac-KIAALKEK[X1]AALKEKIAALKE-NH2),t1/2 of thermal relaxation,[1]; from 340 nm PSS after photocycling,46 h
same,recovery by thermal relaxation,[1]; in 69 h from 340 nm PSS,65%
same,dark absorbance at 325 nm regained after 435 nm light,[2],92%
